The assay addresses mouse EP1 receptor (Mus musculus (Mouse), UniProt P35375). The experiment in a line: Measurement of EP1 Antagonist Activity (inhibition of PGE2-induced increase in intracellular calcium). It is filed as cell-based. Particulars: cells expressing mouse EP1 receptor; increase in intracellular calcium induced by PGE2 (100 nM). Here is the method: The cells expressing mouse EP1 receptor were seeded at 10^4 cells/well in 96-well plates and cultured for 2 days with 10% Fetal Bovine Serum (FBS)/alpha Modified Eagle Medium (αMEM) in the incubator (37° C., 5% CO2). The cells were washed with phosphate buffer, and load buffer (10% FBS/αMEM containing Fura2/AM (5 μM), indomethacin (20 μM) and probenecid (2.5 mM)) was then added to each well and cells were left standing for 1 hour. Load buffer of each well was discarded and assay buffer (Hank's Balanced Salt Solution (HBSS) containing indomethacin (2.5 mM), probenecid (2.5 mM), HEPES-NaOH (10 mM) and 0.1% (w/v) Bovine Serum Albumin (BSA)) was added to each well and plates were left at room temperature in a dark room for 1 hour. Afterwards, compounds of the present invention (10 μL) or PGE2 (10 μL) prepared with assay buffer was added to each well and intracellular calcium concentrations were measured using a Fluorescence Drug Screening System (FDSS-4000, Hamamatsu Photonics K.K.). Changes in ratio of fluorescent intensity at 500 nm in cells exposed to alternating 2 excitation wavelengths was monitored as changes in intracellular calcium concentrations.
IC50 values were calculated based on the response inhibition rate of increase in intracellular calcium concentrations induced by PGE2 (100 nM) and was used as an index of EP1 antagonistic activity.
Background: Calcium assays in cells follow changes in intracellular calcium, usually with a dye or a luminescent sensor.

Sequences of proteins named here, by UniProt entry; tags and fusion partners are left off. A change or cut given only in a name is not applied to a line headed by its entry.
UniProt P35375: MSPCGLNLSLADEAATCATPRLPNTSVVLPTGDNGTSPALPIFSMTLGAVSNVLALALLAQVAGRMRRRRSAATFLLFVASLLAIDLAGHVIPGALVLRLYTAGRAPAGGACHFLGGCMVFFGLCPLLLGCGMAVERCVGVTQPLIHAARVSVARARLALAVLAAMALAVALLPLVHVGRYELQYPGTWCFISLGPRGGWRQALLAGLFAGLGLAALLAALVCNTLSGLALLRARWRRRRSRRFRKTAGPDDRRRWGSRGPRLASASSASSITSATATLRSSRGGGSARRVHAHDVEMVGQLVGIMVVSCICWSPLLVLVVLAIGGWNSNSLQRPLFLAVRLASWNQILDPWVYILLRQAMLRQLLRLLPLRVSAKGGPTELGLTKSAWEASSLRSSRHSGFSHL

In general, IC50 refers to the concentration at which inhibition is half-maximal. In the case of `Cc1csc(S(=O)(=O)N(CC(C)C)c2cc3c(cc2OCc2ccc(C(=O)O)cc2)CCC3)n1` [Compound B, 4-[6-[N-isobutyl-N-(4-methyl-2-thiazolylsulfonyl)amino]indan-5-yloxymethyl]benzoic acid], the IC50 was 9.3 nM.

The values are drawn from patent US9181187B2, “Therapeutic agent for urinary excretion disorder” (ONO PHARMACEUTICAL CO., LTD., priority 2007, dated 2015).
